Experimental data published in ChEMBL document CHEMBL1136834 (Bioorg Med Chem Lett, 2009).

Key:
CHO [1] = assay: Ratio of Ki for human mu opioid receptor to Ki for human kappa opioid receptor expressed in CHO cells; format: cell-based
CHO [2] = assay: Ratio of Ki for human delta opioid receptor to Ki for human kappa opioid receptor expressed in CHO cells; format: cell-based

Compound: C[C@H]1C2Cc3ccc4[nH]nnc4c3[C@@]1(C)CCN2CC1CC1
- Ratio Ki (CHO [1]): 6
- Ratio Ki (CHO [2]): 200

Compound: Cc1nc2cc3c(cc2[nH]1)[C@@]1(C)CCN(CC2CC2)C(C3)[C@@H]1C
- Ratio Ki (CHO [1]): 15
- Ratio Ki (CHO [2]): 360

Compound: C[C@H]1C2Cc3cc4nn[nH]c4cc3[C@@]1(C)CCN2CC1CC1
- Ratio Ki (CHO [1]): 12
- Ratio Ki (CHO [2]): 63

Compound: C[C@H]1C2Cc3cc4nc[nH]c4cc3[C@@]1(C)CCN2CC1CC1
- Ratio Ki (CHO [1]): 5
- Ratio Ki (CHO [2]): 81
